System: GRP94/HSP90

C[C@@H]1C[C@H]2O[C@@H]2/C=C\C=C\C(=O)Cc2c(Cl)c(O)cc(O)c2C(=O)O1 [radicicol]
effect on conversion to the active conformation: block the conversion of these proteins to the conformation necessary for function
